The values that follow come from US4066510A, “Assay for mutagenesis in diploid human lymphoblasts” (Massachusetts Institute of Technology, priority 1976, dated 1978).

In series [1] the test system is human lymphoblast line (MIT-2). Put plainly: Mutagenesis assay: 6TG-resistant mutant fraction in diploid human lymphoblasts. To be noted: for INDUCED MUTANT FRACTION: 24 h treatment: EMS 840, MNU 50, MNNG .225, BUdR 50, ICR-191 1.25 μM, control 0.05 to 0.40 × 10^-4; for number of divisions required for full phenotypic expression: MIT-2, FIG. 4.
Series [2] relates to human lymphoblast line (MIT-2). Briefly: Cell survival and growth of human lymphoblasts after mutagen treatment (soft-agar plating, particle counts). To be noted: 24 h treatment: EMS 840, MNU 50, MNNG .225, BUdR 50, ICR-191 1.25 μM.

`COc1ccc2nc3cc(Cl)ccc3c(NCCCNCCCl)c2c1`: in series [1], the “INDUCED MUTANT FRACTION” value is given as 5.6 × 10^4 and the “number of divisions required for full phenotypic expression” value amounted to 16 divisions. The “EST. INITIAL GROWTH DELAY” value in series [2] was 3 to 4 days. The “PERCENT SURVIVING” value in series [2] (cloning efficiency at 24 hours) is recorded as 18%.

`O=c1[nH]c(=O)n([C@H]2C[C@H](O)[C@@H](CO)O2)cc1Br`: the “INDUCED MUTANT FRACTION” value in series [1] is on record as 4.2 × 10^4.

Regarding `CCOS(C)(=O)=O` [EMS, ethyl methane sulphonate], in series [1], the “INDUCED MUTANT FRACTION” value is on record as 6.9 × 10^4 and the “number of divisions required for full phenotypic expression” value turned out to be 9 divisions.

As for `CN(N=O)C(N)=O` [MNU, methylnitrosourea], the “time at which 6TG^R cells were found” value in series [1] (8 μg/ml MNU) is recorded as “by the eighth day after treatment”. Besides, the “plating efficiency of 6TG^R cells, stable maximum” value in series [1] (8 μg/ml MNU, plated in 10 μg/ml 6TG) is on record as 1.3 × 10^-4 observed clones per plated particle. Also, the “observed mutant fraction on days 8 and 10” value in series [1] (8 μg/ml MNU, same as before treatment) is on record as 4 × 10^-5. Besides, the “mutant fraction, stable maximum” value in series [1] (8 μg/ml MNU, stable on days 16-22) was 4.6 × 10^-4 6TG^R clones per total plated clones. Besides, in series [1], the “INDUCED MUTANT FRACTION” value is 4.8 × 10^4. In addition, the “observed mutant fraction as a function of MNU concentration, higher range” value in series [1] (beginning between 6 and 8 μg/ml and lasting through 12 μg/ml) is “much faster rate of increase”. In addition, in series [1] (dose range of 0.6 μg/ml of MNU (so in the source)), the “observed mutant fraction as a function of MNU concentration, lower range” value is “a monotonic increase in mutant fraction seemed to occur”. In series [1] (five other MNU-treated cultures), the “final mutant fraction versus untreated controls” value was “significantly greater than the untreated controls”.
